Assay results taken from article PMC6907089.

T1: AP-1 complex subunit beta-1 (AP1B1), Q10567
T1 chain: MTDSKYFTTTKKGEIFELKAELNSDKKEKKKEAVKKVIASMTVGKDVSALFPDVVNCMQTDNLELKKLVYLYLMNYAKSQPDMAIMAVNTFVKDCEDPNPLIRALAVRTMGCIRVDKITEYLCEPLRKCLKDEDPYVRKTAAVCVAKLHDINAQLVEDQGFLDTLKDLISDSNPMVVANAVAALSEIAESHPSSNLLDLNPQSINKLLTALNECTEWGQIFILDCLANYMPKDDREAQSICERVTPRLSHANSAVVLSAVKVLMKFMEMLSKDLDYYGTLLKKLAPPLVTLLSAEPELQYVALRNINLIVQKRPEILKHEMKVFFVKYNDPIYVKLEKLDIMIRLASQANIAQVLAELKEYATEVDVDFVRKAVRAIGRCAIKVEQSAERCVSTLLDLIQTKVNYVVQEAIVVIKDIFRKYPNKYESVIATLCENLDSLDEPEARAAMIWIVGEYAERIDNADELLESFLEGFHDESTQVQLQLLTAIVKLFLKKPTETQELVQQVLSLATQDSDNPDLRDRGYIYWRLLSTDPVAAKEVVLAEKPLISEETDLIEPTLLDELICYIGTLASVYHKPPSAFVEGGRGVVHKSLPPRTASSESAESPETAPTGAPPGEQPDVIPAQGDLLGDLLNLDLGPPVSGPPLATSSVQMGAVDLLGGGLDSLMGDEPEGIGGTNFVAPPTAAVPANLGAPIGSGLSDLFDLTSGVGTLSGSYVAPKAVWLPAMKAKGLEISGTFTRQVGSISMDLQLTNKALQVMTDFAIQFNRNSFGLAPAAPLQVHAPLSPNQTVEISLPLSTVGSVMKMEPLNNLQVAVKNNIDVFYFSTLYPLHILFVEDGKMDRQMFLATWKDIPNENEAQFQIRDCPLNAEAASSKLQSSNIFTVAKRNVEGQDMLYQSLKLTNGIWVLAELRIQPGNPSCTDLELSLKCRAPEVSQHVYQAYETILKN

T2: APMAP (adipocyte plasma membrane-associated protein), Q9HDC9
T2 chain: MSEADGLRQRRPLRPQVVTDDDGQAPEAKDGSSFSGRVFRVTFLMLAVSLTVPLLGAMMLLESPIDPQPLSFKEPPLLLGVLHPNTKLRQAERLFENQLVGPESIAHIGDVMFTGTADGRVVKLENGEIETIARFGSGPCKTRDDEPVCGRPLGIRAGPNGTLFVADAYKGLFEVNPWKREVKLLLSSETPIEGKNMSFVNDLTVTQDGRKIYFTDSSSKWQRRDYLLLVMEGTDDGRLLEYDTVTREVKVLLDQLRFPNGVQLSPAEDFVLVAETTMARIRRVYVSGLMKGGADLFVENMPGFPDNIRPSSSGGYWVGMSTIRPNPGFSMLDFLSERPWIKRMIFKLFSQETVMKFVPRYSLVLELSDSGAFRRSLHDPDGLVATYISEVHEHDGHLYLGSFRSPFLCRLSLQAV

T3: PDXD1 (pyridoxal-dependent decarboxylase domain-containing protein 1), Q6P996
T3 chain: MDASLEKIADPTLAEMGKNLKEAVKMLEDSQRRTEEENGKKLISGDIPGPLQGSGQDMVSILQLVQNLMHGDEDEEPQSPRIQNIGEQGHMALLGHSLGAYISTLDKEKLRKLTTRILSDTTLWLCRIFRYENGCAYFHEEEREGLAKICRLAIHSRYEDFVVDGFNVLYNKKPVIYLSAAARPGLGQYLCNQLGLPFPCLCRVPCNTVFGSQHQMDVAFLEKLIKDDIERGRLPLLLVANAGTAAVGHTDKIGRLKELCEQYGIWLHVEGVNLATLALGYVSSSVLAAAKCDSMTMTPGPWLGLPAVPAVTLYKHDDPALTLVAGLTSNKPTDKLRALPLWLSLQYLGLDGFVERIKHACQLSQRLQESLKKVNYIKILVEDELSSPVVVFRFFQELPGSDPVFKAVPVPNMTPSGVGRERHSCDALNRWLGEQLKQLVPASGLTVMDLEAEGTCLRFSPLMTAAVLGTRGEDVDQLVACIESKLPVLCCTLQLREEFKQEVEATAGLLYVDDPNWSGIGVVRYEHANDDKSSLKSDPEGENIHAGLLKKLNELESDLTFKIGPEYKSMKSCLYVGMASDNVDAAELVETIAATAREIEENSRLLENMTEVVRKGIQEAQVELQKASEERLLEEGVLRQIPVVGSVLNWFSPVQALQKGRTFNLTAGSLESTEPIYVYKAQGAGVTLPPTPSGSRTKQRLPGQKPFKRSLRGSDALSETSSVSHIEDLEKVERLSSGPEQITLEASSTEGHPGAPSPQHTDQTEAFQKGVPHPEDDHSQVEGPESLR

T4: UBIA1, Q9Y5Z9
T4 chain: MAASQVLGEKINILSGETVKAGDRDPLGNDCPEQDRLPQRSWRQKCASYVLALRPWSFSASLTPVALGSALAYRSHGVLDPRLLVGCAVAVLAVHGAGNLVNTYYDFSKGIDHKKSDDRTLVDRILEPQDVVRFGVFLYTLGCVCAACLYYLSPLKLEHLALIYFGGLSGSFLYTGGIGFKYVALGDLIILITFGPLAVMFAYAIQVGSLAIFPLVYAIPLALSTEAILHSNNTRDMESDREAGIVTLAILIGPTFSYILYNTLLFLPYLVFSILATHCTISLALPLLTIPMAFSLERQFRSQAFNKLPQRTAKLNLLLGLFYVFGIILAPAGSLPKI

T5: protein transport protein Sec24B, O95487
T5 chain: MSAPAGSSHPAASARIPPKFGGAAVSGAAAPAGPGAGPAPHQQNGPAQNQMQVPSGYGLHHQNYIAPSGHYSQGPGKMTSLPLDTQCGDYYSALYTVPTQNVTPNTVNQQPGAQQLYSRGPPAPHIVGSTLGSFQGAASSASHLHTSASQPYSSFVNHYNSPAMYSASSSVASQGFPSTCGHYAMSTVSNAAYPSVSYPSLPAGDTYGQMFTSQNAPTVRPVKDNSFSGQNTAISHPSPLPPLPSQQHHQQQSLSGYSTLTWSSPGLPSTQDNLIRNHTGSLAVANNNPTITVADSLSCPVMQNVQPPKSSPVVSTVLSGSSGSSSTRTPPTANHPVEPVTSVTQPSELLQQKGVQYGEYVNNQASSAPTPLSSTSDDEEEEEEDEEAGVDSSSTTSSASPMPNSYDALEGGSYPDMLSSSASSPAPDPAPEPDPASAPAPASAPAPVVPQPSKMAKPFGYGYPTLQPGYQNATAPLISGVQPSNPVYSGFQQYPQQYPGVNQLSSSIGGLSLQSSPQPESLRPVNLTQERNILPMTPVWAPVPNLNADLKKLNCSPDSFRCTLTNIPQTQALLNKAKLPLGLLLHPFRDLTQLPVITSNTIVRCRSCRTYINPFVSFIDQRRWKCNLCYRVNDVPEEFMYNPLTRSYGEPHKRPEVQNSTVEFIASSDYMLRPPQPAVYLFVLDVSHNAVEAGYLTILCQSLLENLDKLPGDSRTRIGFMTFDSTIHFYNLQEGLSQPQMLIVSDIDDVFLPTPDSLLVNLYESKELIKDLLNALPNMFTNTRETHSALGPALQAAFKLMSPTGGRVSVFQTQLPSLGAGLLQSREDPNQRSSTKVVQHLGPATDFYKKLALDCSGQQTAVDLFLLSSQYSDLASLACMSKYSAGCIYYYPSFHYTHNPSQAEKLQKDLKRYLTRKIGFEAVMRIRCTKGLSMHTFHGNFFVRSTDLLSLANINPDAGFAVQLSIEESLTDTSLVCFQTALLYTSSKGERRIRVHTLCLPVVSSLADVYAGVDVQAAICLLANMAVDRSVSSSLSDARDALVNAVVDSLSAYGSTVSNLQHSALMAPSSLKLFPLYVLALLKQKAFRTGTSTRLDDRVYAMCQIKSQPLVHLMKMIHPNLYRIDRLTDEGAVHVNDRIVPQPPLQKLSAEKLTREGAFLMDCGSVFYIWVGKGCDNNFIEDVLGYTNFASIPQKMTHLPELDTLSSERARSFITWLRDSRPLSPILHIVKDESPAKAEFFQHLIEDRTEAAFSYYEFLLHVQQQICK

T6: ubiquitin carboxyl-terminal hydrolase CYLD, Q9NQC7
T6 chain: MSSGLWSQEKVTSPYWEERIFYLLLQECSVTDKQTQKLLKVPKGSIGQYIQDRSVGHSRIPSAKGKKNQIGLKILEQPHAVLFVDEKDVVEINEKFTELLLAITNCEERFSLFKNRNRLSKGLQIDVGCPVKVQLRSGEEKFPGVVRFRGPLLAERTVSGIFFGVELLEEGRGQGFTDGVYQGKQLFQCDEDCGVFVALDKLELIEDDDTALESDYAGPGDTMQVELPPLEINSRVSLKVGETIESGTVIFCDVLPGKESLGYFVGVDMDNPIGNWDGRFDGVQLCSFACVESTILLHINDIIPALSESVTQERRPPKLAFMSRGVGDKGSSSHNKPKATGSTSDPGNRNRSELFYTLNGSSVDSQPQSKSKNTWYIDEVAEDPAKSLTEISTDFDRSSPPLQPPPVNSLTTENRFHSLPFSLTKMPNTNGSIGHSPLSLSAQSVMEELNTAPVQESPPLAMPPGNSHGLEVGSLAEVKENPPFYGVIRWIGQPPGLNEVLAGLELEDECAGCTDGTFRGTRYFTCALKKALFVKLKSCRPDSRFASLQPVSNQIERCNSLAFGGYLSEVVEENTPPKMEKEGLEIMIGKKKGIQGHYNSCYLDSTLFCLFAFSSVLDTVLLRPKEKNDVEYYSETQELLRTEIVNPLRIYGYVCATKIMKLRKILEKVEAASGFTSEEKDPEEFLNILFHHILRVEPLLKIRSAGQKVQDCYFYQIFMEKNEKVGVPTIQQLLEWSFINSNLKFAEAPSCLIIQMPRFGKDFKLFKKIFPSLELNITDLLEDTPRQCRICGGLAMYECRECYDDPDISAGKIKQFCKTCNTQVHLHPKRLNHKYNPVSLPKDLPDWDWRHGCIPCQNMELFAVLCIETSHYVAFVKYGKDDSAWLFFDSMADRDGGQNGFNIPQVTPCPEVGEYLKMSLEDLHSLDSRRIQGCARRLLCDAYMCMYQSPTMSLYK


Columns and labels:
Test in all cases: BioID proximity labeling, quantitative mass spectrometry
Conditions in all cases: chain shown with the change; inducible HEK293 cells; read off a plot
[1] = target: T1, AP-1 complex subunit beta-1 (AP1B1), …
[2] = target: T2, APMAP (adipocyte plasma …)
GOGB1, Q14789 = target: GOGB1, Q14789
[3] = target: T3, PDXD1 (pyridoxal-dependent …)
UBIA1, Q9Y5Z9 = target: T4, UBIA1, Q9Y5Z9
[4] = target: protein transport protein Sec23A, Q15436
[5] = target: protein transport protein Sec23B, Q15437
[6] = target: T5, protein transport protein Sec24B, O95487
[7] = target: T6, ubiquitin carboxyl-terminal hydrolase …

| ratio to parent [1] | ratio to parent [2] | ratio to parent (GOGB1, Q14789) | ratio to parent [3] | ratio to parent (UBIA1, Q9Y5Z9) | ratio to parent [4] | ratio to parent [5] | ratio to parent [6] | ratio to parent [7] | Binder |
| --- | --- | --- | --- | --- | --- | --- | --- | --- | --- |
| 0 | 0.25 | 2.7 | 0.33 | 3 | 0.17 | 0.38 | 0.27 | 0.3 | STING H232 (wild-type; wt), Q86WV6 G207E (protein) MPHSSLHPSIPCPRGHGAQKAALVLLSACLVTLWGLGEPPEHTLRYLVLHLASLQLGLLLNGVCSLAEELRHIHSRYRGSYWRTVRACLGCPLRRGALLLLSIYFYYSLPNAVGPPFTWMLALLGLSQALNILLGLKGLAPAEISAVCEKGNFNVAHGLAWSYYIGYLRLILPELQARIRTYNQHYNNLLRGAVSQRLYILLPLDCEVPDNLSMADPNIRFLDKLPQQTGDHAGIKDRVYSNSIYELLENGQRAGTCVLEYATPLQTLFAMSQYSQAGFSREDRLEQAKLFCRTLEDILADAPESQNNCRLIAYQEPADDSSFSLSQEVLRHLRQEEKEEVTVGSLKTSAVPSTSTMSQEPELLISGMEKPLPLRTDFS |
| 0.57 | 0 | 0.59 | 0.37 | 0.54 |  | 0.05 | 0.14 | 1.1 | STING R232, Q86WV6 G207E (protein) MPHSSLHPSIPCPRGHGAQKAALVLLSACLVTLWGLGEPPEHTLRYLVLHLASLQLGLLLNGVCSLAEELRHIHSRYRGSYWRTVRACLGCPLRRGALLLLSIYFYYSLPNAVGPPFTWMLALLGLSQALNILLGLKGLAPAEISAVCEKGNFNVAHGLAWSYYIGYLRLILPELQARIRTYNQHYNNLLRGAVSQRLYILLPLDCEVPDNLSMADPNIRFLDKLPQQTGDHAGIKDRVYSNSIYELLENGQRAGTCVLEYATPLQTLFAMSQYSQAGFSREDRLEQAKLFCRTLEDILADAPESQNNCRLIAYQEPADDSSFSLSQEVLRHLRQEEKEEVTVGSLKTSAVPSTSTMSQEPELLISGMEKPLPLRTDFS |
